Test results published in patent publication US20120295965A1, “FUSED THIOPHENES AS DUAL INHIBITORS OF EGFR/VEGFR AND THEIR USE IN THE TREATMENT OF CANCER” (priority 2009, published 2012).

Test system: mallotoxin response in HT29
Experiment: Epic label-free DMR biosensor cellular assay, hERG activator mallotoxin marker in HT29
Conditions: MTX at 16 micromolar
Description: HT29 expresses VEGFR1 (Flt1 receptor), but not other VEGF receptors.
All cell lines were obtained from American Type Cell Culture (Manassas, Va.). The cell culture medium was as follows: (1) Dulbecco's modified Eagle's medium (DMEM) supplemented with 10% fetal bovine serum (FBS), 4.5 g/liter glucose, 2 mM glutamine, and antibiotics for human epidermoid carcinoma A431; and (2) McCoy's 5a Medium Modified supplemented with 10% FBS, 4.5 g/liter glucose, 2 mM glutamine, and antibiotics for human colorectal adenocarcinoma HT29.
Cells were typically grown using ˜1 to 2×10^4 cells per well at passage 3 to 15 suspended in 50 μl of the corresponding culture medium in the biosensor microplate, and were cultured at 37° C. under air/5% CO2 for ˜1 day. […]
For biosensor cellular assays, molecule solutions were made by diluting the stored concentrated solutions with the HBSS (1× Hanks balanced salt solution, plus 20 mM Hepes, pH 7.1), and transferred into a 384well polypropylene molecule storage plate to prepare a molecule source plate. […] Both the cell assay plate and the molecule and marker source plate(s) were then incubated in the hotel of the reader system. After ˜1 hr of incubation the baseline wavelengths of all biosensors in the cell assay microplate were recorded and normalized to zero. […]

6H-Indeno[1,2-e]tetrazolo[1,5-b][1,2,4]triazin-6-one & 10H-Indeno[2,1-e]tetrazolo[1,5-b][1,2,4]triazin-10-one [dual PDK1/AKT/Flt1 pathway inhibitor]
impact on DMR signal of MTX in HT29: almost completely attenuated
